Legend:
human Sirt2 = human Sirt2 (Homo sapiens, UniProt Q8IXJ6); assay: Homogeneous ZMAL-based fluorescence assay, Sirt2; details: 3rd round
Procedure: (§1) Recombinant human Sirt5_37−310 was purchased readily in Tris Buffer [25 mM Tris, 100 mM NaCl, 5 mM DTT, 10% glycerol (v/v)] from Enzo Life Sciences (NY, USA). Human Sirt3_118−395 was expressed and purified as described previously ([54]). For expression of human Sirt1_134−747 and Sirt2_56−356 chemically competent cells of E. coli BL21 Star (DE3) were transformed with the expression vectors pET30S-hSirt1_134−747 or pET30S-hSirt2_56−356. Bacteria were grown at 37°C in 2×YT medium supplemented with 50 μg·mL^−1 of kanamycin to an OD600 of 0.6. Then isopropyl-β-D-1-thiogalactopyranoside (IPTG) was added to a final concentration of 1 mM to induce gene expression. After further cultivation at 20°C for 12 h, the cells were harvested by centrifugation for 15 min at 5,000 g. The cells were resuspended in lysis buffer [100 mM Tris/HCl buffer at pH 8.0, 150 mM NaCl and 10% (v/v) glycerol] and disrupted by ultrasonication (Branson Digital Sonifier 250) at 70% amplitude for 10 min (3 s working, 10 s pause). The crude extract was cleared by centrifugation at 100,000 g for 1 h, and the supernatant was loaded onto a Strep-Tactin Superflow cartridge (5 ml bed volume, IBA Lifescience, Germany). Target proteins were eluted with lysis buffer containing 5 mM D-Desthiobiotin (IBA Lifescience, Germany) and further separated by size-exclusion chromatography (Superdex S200 26/60, GE Healthcare, IL, USA) equilibrated in Tris/HCl buffer (20 mM, 150 mM NaCl, pH 8.0). Pure protein was concentrated by ultrafiltration, flash-frozen in liquid nitrogen and stored at −80°C until further use. Identity as well as purity were verified by SDS-PAGE ([55]) and protein concentration was determined by the bicinchoninic acid (BCA) method, using bovine serum albumin (BSA) as a standard ([56]). Deacetylase activity was confirmed to be NAD^+-dependent and could be inhibited with the physiological sirtuin inhibitor nicotinamide.
(§2) All compounds were tested in the trypsin-coupled high-throughput ZMAL-assay in black 96-well plates (OptiPlateTM−96F, black, 96 well, Pinch bar design, PerkinElmer, USA), using ZMAL (Z-Lys(acetyl)-AMC) as a substrate ([57]). Sirt1_134−747, Sirt2_56−356, and Sirt3_118−395 were mixed with 5 μL substrate (10.5 μM final assay concentration, diluted from a […] stock in DMSO) and 3 μL Inhibitor in DMSO at various concentrations or DMSO as a control [final DMSO concentration 5% (v/v)]. The mixture was supplemented with assay buffer (50 mM Tris/HCl, 137 mM NaCl, 2.7 mM KCl, 1 mM MgCL2, pH 8.0) to a total volume of 55 μL. Enzyme concentration was adjusted to get a final conversion of 20–30%. Addition of 5 μL NAD^+ (6 mM in assay buffer, final assay concentration of 500 μM) initiated the catalytic reaction and the plates were incubated at 37°C for 4 h with agitation at 140 rpm. The catalytic reaction was stopped by addition of 60 μL stop solution [50 mM Tris, 100 mM NaCl, 6.7% (V/V) DMSO, 5.5 U/μL trypsin, 8 μM nicotinamide, pH 8.0]. […] Afterwards, fluorescence intensity was measured in a microplate reader (λEx = 390 nm, λEm = 460 nm, BMG POLARstar Optima, BMG Labtech, Germany). An enzyme-free blank control and a 100% conversion control containing AMC instead of ZMAL were measured in addition. Inhibition was calculated in % in relation to a DMSO control after blank signal subtraction and IC50 values were determined using a non-linear regression to fit the dose-response curve with OriginPro 9G (OriginLab, USA). […]

Amino acid sequences for entries named in this document (tags omitted). Residues count along the entry.
UniProt Q8IXJ6, 56-356 limits assumed: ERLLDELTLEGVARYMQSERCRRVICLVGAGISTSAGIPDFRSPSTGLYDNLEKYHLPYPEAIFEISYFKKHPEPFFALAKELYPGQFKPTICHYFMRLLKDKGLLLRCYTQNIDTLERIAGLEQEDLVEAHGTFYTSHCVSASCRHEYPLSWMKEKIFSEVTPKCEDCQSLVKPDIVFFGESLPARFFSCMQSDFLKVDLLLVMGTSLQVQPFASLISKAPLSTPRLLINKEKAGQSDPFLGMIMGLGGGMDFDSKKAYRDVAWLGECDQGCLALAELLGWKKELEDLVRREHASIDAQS
UniProt Q96EB6, 134-747 limits assumed: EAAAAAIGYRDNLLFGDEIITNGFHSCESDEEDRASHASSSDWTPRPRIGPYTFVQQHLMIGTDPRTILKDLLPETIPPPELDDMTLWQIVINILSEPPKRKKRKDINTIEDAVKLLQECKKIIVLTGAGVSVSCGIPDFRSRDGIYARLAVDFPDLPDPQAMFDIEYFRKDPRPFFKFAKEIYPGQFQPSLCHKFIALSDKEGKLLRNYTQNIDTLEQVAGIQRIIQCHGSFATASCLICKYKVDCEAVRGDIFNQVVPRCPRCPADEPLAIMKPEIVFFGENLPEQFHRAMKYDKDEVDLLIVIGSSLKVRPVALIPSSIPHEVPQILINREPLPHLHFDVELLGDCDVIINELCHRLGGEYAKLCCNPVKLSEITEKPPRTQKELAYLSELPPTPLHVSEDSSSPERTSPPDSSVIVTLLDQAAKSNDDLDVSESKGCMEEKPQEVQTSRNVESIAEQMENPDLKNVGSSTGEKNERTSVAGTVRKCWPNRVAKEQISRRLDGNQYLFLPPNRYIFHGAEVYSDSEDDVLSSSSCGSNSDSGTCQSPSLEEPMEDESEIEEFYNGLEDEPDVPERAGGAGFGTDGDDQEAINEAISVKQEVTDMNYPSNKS
UniProt Q9NTG7, 118-395 limits assumed: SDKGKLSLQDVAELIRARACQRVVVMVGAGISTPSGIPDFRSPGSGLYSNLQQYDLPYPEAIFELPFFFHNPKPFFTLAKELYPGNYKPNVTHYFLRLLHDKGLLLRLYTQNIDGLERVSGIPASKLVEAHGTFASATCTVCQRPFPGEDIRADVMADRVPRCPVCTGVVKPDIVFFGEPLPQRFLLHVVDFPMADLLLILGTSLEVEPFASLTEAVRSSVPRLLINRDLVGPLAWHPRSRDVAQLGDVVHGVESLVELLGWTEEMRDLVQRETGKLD

human Sirt1 = human Sirt1 (Homo sapiens, UniProt Q96EB6); assay: Homogeneous ZMAL-based fluorescence assay, Sirt1; details: read-out: IC50 Sirt1; 3rd round
Procedure: as §1, §2

human Sirt3 = human Sirt3 (Homo sapiens, UniProt Q9NTG7); assay: Homogeneous ZMAL-based fluorescence assay, Sirt3; details: 3rd round
Procedure: as §1, §2

Row | Structure (SMILES) | % inhibition @ 50 μM Sirt2 (human Sirt2) | IC50 (human Sirt1) [µM] | % inhibition @ 50 μM Sirt3 (human Sirt3)
1 | CCC(=O)Nc1nnc(SCC(=O)Nc2cccc(SC#N)c2)s1 | n.i. (no inhibition (<10%)) | 2.8 | n.i. (no inhibition (<10%))
2 | N#CSc1cccc(NC(=O)CSc2nc3ccccc3[nH]2)c1 | n.i. (no inhibition (<10%)) | 5.1 | n.i. (no inhibition (<10%))
3 | N#CSc1cccc(NC(=O)CSc2nc3ccccc3o2)c1 | n.i. (no inhibition (<10%)) | 5.3 | n.i. (no inhibition (<10%))
4 | N#CSc1cccc(NC(=O)CSc2nc3ccccc3s2)c1 | n.i.^* (no inhibition (<10%)) | 6.4 | n.i. (no inhibition (<10%))
5 | N#CSc1cccc(NC(=O)CSc2nc[nH]n2)c1 | n.i. (no inhibition (<10%)) | 9.4 | n.i. (no inhibition (<10%))

Reference: PMC7203344, “Sirtuin 1 Inhibiting Thiocyanates (S1th)—A New Class of Isotype Selective Inhibitors of NAD^+ Dependent Lysine Deacetylases” (Frontiers in Oncology, 2020)
